Data taken from paper PMC6842095 (Neuropharmacology, 2019).

By UniProt entry, the sequences of proteins in these tests, tags left out. Residues count along the entry.
UniProt P43681, 29-627 K186G/Y218R/T220E/K222F/I229P: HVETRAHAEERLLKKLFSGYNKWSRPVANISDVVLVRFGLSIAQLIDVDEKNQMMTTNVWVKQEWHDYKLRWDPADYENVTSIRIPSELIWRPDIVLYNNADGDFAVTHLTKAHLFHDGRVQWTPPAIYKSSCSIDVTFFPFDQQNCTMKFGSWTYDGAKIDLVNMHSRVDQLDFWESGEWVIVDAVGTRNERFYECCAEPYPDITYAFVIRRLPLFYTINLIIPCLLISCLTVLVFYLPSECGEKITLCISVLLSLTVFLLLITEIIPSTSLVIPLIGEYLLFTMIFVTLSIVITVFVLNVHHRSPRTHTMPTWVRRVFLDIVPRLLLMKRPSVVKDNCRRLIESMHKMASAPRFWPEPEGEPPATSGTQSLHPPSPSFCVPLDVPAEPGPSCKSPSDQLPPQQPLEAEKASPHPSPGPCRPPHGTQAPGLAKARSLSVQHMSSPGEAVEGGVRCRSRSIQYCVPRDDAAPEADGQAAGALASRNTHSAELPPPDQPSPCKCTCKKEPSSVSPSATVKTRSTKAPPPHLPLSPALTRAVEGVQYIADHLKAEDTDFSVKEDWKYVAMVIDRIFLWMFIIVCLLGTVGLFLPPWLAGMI

Target: α4 GREFP β2 AChR (Homo sapiens, UniProt P17787+P43681, I229P/K186G/K222F/T220E/Y218R)
Type: binding

In the case of `CO[C@H]1CC=C2CCN3CCC4=C(CC(=O)OC4)[C@]23C1` [DHβE, dihydro-β-erythroidine], the “nH (Hill coefficient)” value is reported as 1.4 ± 0.1.
